Data reported in ChEMBL document CHEMBL5537207, “Discovery and Characterization of Selective, First-in-Class Inhibitors of Citron Kinase” (J Med Chem, 2024).

Chains of the proteins cited; added tags and fusions are not shown.
UniProt O14578, whole entry: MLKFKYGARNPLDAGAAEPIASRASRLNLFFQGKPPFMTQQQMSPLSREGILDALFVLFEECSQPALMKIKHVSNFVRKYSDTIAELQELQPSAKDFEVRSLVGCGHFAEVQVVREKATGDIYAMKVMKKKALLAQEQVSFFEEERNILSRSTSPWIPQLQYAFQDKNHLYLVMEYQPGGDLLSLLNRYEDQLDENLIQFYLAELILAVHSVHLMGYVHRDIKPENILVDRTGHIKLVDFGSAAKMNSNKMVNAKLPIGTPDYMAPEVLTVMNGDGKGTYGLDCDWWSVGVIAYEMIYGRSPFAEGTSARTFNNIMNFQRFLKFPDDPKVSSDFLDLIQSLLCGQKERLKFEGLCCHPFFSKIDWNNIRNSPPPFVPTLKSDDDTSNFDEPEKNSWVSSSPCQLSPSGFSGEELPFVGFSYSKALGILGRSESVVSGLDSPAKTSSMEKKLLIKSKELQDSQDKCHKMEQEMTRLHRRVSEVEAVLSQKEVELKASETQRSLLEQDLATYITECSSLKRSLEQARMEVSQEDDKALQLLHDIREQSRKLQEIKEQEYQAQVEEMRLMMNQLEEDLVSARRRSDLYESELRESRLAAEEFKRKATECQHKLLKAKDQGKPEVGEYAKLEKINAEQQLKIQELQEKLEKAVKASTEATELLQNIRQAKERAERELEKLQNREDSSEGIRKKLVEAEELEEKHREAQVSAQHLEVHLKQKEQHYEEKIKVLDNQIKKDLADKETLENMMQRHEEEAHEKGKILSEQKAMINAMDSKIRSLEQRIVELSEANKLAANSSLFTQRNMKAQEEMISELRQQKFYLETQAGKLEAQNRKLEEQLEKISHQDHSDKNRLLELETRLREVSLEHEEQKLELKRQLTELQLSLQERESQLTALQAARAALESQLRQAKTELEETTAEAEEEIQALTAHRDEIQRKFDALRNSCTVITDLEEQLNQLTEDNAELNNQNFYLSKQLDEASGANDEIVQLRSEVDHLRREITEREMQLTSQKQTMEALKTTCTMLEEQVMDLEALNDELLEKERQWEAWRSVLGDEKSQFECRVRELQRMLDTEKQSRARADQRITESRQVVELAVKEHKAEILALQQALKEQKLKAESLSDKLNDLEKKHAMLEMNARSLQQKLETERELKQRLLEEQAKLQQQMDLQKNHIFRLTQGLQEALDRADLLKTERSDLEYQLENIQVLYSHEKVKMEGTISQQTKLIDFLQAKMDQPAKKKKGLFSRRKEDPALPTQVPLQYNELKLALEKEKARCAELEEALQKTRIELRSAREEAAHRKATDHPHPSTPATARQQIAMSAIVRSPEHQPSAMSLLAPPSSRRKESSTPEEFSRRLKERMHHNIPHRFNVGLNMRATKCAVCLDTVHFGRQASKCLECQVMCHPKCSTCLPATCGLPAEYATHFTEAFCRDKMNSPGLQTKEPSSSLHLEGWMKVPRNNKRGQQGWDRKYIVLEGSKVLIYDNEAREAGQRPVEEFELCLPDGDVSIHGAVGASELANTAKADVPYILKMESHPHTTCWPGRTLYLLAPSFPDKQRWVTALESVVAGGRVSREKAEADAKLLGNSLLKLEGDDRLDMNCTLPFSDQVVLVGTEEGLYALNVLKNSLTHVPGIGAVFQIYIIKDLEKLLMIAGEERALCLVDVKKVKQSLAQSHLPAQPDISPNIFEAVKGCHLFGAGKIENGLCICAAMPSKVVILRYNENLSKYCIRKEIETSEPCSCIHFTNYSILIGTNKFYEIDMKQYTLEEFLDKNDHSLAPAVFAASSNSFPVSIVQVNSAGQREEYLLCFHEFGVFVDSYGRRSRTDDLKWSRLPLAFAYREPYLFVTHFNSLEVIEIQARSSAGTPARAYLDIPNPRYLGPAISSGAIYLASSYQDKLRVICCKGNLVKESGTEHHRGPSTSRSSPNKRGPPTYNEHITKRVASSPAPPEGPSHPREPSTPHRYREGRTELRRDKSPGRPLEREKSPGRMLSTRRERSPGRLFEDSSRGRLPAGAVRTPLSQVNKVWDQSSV

Experiments:
[1] = biological target: T1, Citron Rho-interacting kinase (Homo sapiens, UniProt O14578); conditions: Sf9, dose 10.0 µM, time 20.0 min
[2] = biological target: T1, Citron Rho-interacting kinase; conditions: dose 100.0 µM, time 20.0 min
[3] = biological target: T1, Citron Rho-interacting kinase; conditions: dose 1.0 mM, time 20.0 min
[4] = biological target: T1, Citron Rho-interacting kinase; conditions: Sf9, dose 1.0 mM, time 20.0 min

| ΔTm [1] | ΔTm [2] | ΔTm [3] | ΔTm [4] | Compound |
| --- | --- | --- | --- | --- |
| 2.1 °C | 2.1 °C |  |  | Cc1cc2c(-c3ccc(NC(=O)[C@H](N)CC(C)(C)C)cc3C)ccnc2[nH]1 |
| -0.3 °C | -0.2 °C |  |  | Cc1cc2c(-c3ccc(NC(=O)[C@H](N)CC(C)(C)C)cc3C)cncc2[nH]1 |
|  |  | 1 °C | 0.8 °C | Cc1ccc2c(c1)C(=O)[C@]1(O)CCN(c3ccc(N)cc3)C1=N2 |
